Reference: patent publication US20250195530A1, “POLQ INHIBITORS” (ASTRAZENECA AB, priority 2022, published 2025)

Protein sequences, listed by entry. Tags and fused reporters are not part of them. Residues count along the entry.
UniProt O75417, 1780-2590: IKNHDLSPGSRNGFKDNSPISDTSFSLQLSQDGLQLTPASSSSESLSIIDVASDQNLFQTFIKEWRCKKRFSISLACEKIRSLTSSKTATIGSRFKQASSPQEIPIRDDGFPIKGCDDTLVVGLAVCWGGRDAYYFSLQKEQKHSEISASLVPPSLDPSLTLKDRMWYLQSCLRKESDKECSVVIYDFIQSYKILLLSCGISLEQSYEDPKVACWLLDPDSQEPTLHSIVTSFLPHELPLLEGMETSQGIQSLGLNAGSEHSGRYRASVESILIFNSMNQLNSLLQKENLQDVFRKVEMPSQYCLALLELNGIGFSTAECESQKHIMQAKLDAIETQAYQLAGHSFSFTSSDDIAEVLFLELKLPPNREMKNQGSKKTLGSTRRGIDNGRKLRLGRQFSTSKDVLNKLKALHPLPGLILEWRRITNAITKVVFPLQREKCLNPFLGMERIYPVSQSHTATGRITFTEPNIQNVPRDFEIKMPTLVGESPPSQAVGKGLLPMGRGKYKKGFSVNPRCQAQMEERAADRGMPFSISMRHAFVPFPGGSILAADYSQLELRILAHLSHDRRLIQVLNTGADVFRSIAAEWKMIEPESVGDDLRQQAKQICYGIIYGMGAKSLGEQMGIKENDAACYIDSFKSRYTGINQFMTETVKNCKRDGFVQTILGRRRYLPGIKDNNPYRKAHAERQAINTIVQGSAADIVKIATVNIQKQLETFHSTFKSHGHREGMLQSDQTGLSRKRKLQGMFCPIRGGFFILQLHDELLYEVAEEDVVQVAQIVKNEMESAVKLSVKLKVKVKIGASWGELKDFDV

Molecular target: isolated polymerase domain (I1780-V2590) of DNA polymerase theta (Polθ) (Homo sapiens (Human), UniProt O75417)

| IC50 [nM] | Compound |
| --- | --- |
| 6.31 | Cc1cc(OCCN(C)C)ncc1-c1nc2c(OC3(C)CC3)ncnc2n1Cc1ccccc1 [Example G12, 2-((5-(9-benzyl-6-(1-methylcyclopropoxy)-9H-purin-8-yl)-4-methylpyridin-2-yl)oxy)-N,N-dimethylethan-1-amine] |
| 3.98 | CC1(Oc2ncnc3c2nc(-c2ccc(CN)cc2Cl)n3Cc2ccccc2)CC1 [Example N7, (4-(9-benzyl-6-(1-methylcyclopropoxy)-9H-purin-8-yl)-3-chlorophenyl)methanamine] |
| 2 | CC1(Oc2ncnc3c2nc(-c2ccc(OCCN4CCNC(C)(C)C4=O)cc2Cl)n3Cc2ccccc2)CC1 [Example R16, 1-(2-(4-(9-benzyl-6-(1-methylcyclopropoxy)-9H-purin-8-yl)-3-chlorophenoxy)ethyl)-3,3-dimethylpiperazin-2-one] |
| 12.6 | Cc1nc(Cn2c(-c3ccc(OCCN4CCNCC4)cc3Cl)nc3c(OC4(C)CC4)ncnc32)cs1 [Example K6, 4-((8-(2-chloro-4-(2-(piperazin-1-yl)ethoxy)phenyl)-6-(1-methylcyclopropoxy)-9H-purin-9-yl)methyl)-2-methylthiazole] |
| 12.6 | CC1(Oc2ncnc3c2nc(-c2ccc(OCCN4CCNCC4)cc2Cl)n3Cc2cccc(Cl)n2)CC1 [Example 23, 8-(2-chloro-4-(2-(piperazin-1-yl)ethoxy)phenyl)-9-((6-chloropyridin-2-yl)methyl)-6-(1-methylcyclopropoxy)-9H-purine] |
| 2.51 | CC1(Oc2ncnc3c2nc(-c2ccc(OC4CC5(CNC5)C4)cc2Cl)n3Cc2ccccc2)CC1 [Example D34, 8-(4-((2-azaspiro[3.3]heptan-6-yl)oxy)-2-chlorophenyl)-9-benzyl-6-(1-methylcyclopropoxy)-9H-purine] |
| 2 | CN1CCN(CCOc2cccc(-c3nc4c(OC5(C)CC5)ncnc4n3Cc3ccccc3)c2Cl)CC1 [Example D12, 9-benzyl-8-(2-chloro-3-(2-(4-methylpiperazin-1-yl)ethoxy)phenyl)-6-(1-methylcyclopropoxy)-9H-purine] |
| 2 | CCc1ccnc(Cn2c(-c3ccc(OCCN4CCNCC4)cc3Cl)nc3c(OC4(C)CC4)ncnc32)c1 [Example S4, 8-(2-chloro-4-(2-(piperazin-1-yl)ethoxy)phenyl)-9-((4-ethylpyridin-2-yl)methyl)-6-(1-methylcyclopropoxy)-9H-purine] |
| 5.01 | CC1(Oc2ncnc3c2nc(-c2ccc(OCCN4CCNCC4)cc2Cl)n3Cc2ccccn2)CC1 [Example E7, 8-(2-chloro-4-(2-(piperazin-1-yl)ethoxy)phenyl)-6-(1-methylcyclopropoxy)-9-(pyridin-2-ylmethyl)-9H-purine] |
| 3.16 | COc1ccc(-c2nc3c(OC4(C)CC4)ncnc3n2Cc2ccccc2)c(Cl)c1 [Example N8, 9-Benzyl-8-(2-chloro-4-methoxyphenyl)-6-(1-methylcyclopropoxy)-9H-purine] |
| 10 | CC1(Oc2ncnc3c2nc(-c2ccc(OCCNCC(=O)O)cc2Cl)n3Cc2ccccc2)CC1 [Example D29, (2-(4-(9-benzyl-6-(1-methylcyclopropoxy)-9H-purin-8-yl)-3-chlorophenoxy)ethyl)glycine] |
| 5.01 | CN1CCN(CCOc2cc(Cl)c(-c3nc4c(OC5(C)CC5)ncnc4n3Cc3ccccc3)cn2)CC1 [Example 20, 9-Benzyl-8-(4-chloro-6-(2-(4-methylpiperazin-1-yl)ethoxy)pyridin-3-yl)-6-(1-methylcyclopropoxy)-9H-purine] |
| 2 | CC1(Oc2ncnc3c2nc(-c2ccc(OCCN4CCNCC4)cc2Cl)n3Cc2cc(C3CC3)ccn2)CC1 [Example S3, 8-(2-chloro-4-(2-(piperazin-1-yl)ethoxy)phenyl)-9-((4-cyclopropylpyridin-2-yl)methyl)-6-(1-methylcyclopropoxy)-9H-purine] |
| 2.51 | CC1(Oc2ncnc3c2nc(-c2ccc(OCCN4CCNC(=O)CC4)cc2Cl)n3Cc2ccccc2)CC1 [Example H21, 1-(2-(4-(9-benzyl-6-(1-methylcyclopropoxy)-9H-purin-8-yl)-3-chlorophenoxy)ethyl)-1,4-diazepan-5-one] |
| 20 | CC1(Oc2ncnc3c2nc(-c2ccc(OCCN4CCNCC4)cc2Cl)n3Cc2ncccc2C#N)CC1 [Example K11, 2-((8-(2-chloro-4-(2-(piperazin-1-yl)ethoxy)phenyl)-6-(1-methylcyclopropoxy)-9H-purin-9-yl)methyl)nicotinonitrile] |
| 2 | CC1(Oc2ncnc3c2nc(-c2ccc(OCCN4CCNCC4)cc2Cl)n3Cc2cc(C(F)(F)F)ccn2)CC1 [Example K8, 8-(2-chloro-4-(2-(piperazin-1-yl)ethoxy)phenyl)-6-(1-methylcyclopropoxy)-9-((4-(trifluoromethyl)pyridin-2-yl)methyl)-9H-purine] |

| IC50 [nM] | Compound |
| --- | --- |
| 12.6 | COc1cccnc1Cn1c(-c2ccc(OCCN3CCNCC3)cc2Cl)nc2c(OC3(C)CC3)ncnc21 [Example L10, 8-(2-chloro-4-(2-(piperazin-1-yl)ethoxy)phenyl)-9-((3-methoxypyridin-2-yl)methyl)-6-(1-methylcyclopropoxy)-9H-purine] |
| 2.51 | CC(=O)N1CCN(c2cc(C)c(-c3nc4c(OC5(C)CC5)ncnc4n3Cc3ccccc3)cn2)CC1 [Example C2, 1-(4-(5-(9-benzyl-6-(1-methylcyclopropoxy)-9H-purin-8-yl)-4-methylpyridin-2-yl)piperazin-1-yl)ethan-1-one] |
| 5.01 | CC1(Oc2ncnc3c2nc(-c2cc(Cl)c(OCCN4CCNCC4)cc2Cl)n3Cc2ccccc2)CC1 [Example J4, 9-benzyl-8-(2,5-dichloro-4-(2-(piperazin-1-yl)ethoxy)phenyl)-6-(1-methylcyclopropoxy)-9H-purine] |
| 2.51 | CC1(Oc2ncnc3c2nc(-c2ccc(OCCN4CCC(O)CC4)cc2Cl)n3Cc2ccccc2)CC1 [Example H15, 1-(2-(4-(9-benzyl-6-(1-methylcyclopropoxy)-9H-purin-8-yl)-3-chlorophenoxy)ethyl)piperidin-4-ol] |
| 2.51 | C[C@H]1CN(CCOc2ccc(-c3nc4c(OC5(C)CC5)ncnc4n3Cc3ccccc3)c(Cl)c2)CCN1 [Example R3, (S)-9-benzyl-8-(2-chloro-4-(2-(3-methylpiperazin-1-yl)ethoxy)phenyl)-6-(1-methylcyclopropoxy)-9H-purine] |
| 2.51 | CN1CCN(CCOc2ccc(-c3nc4c(OC5(C)CC5)ncnc4n3Cc3cccc(F)c3F)c(Cl)c2)CC1 [Example E3, 8-(2-chloro-4-(2-(4-methylpiperazin-1-yl)ethoxy)phenyl)-9-(2,3-difluorobenzyl)-6-(1-methylcyclopropoxy)-9H-purine] |
| 3.16 | C[C@@H]1CN(CCOc2ccc(-c3nc4c(OC5(C)CC5)ncnc4n3Cc3ccccc3)c(Cl)c2)CCN1 [Example R6, (R)-9-benzyl-8-(2-chloro-4-(2-(3-methylpiperazin-1-yl)ethoxy)phenyl)-6-(1-methylcyclopropoxy)-9H-purine] |
| 2 | Cc1cc(OCCN2CCN(C)CC2)cc(C)c1-c1nc2c(OC3(C)CC3)ncnc2n1Cc1ccccc1 [Example H4, 9-benzyl-8-(2,6-dimethyl-4-(2-(4-methylpiperazin-1-yl)ethoxy)phenyl)-6-(1-methylcyclopropoxy)-9H-purine] |
| 3.98 | CC1(Oc2ncnc3c2nc(-c2ccc(OCC(=O)NCCO)cc2Cl)n3Cc2ccccc2)CC1 [Example D28, 2-(4-(9-benzyl-6-(1-methylcyclopropoxy)-9H-purin-8-yl)-3-chlorophenoxy)-N-(2-hydroxyethyl)acetamide] |
| 5.01 | Cc1cc(OC[C@H]2CNCCO2)ncc1-c1nc2c(OC3(C)CC3)ncnc2n1Cc1ccccc1 [Example G15, (R)-2-(((5-(9-benzyl-6-(1-methylcyclopropoxy)-9H-purin-8-yl)-4-methylpyridin-2-yl)oxy)methyl)morpholine] |
| 5.01 | CC1(Oc2ncnc3c2nc(-c2ccc(OCCN)cc2Cl)n3Cc2ccccc2)CC1 [Example D23, 2-(4-(9-benzyl-6-(1-methylcyclopropoxy)-9H-purin-8-yl)-3-chlorophenoxy)ethan-1-amine] |
| 3.16 | CC1(Oc2ncnc3c2nc(-c2ccc(OCCN4CC5(CNC5)C4)cc2Cl)n3Cc2ccccc2)CC1 [Example 18, 8-(4-(2-(2,6-Diazaspiro[3.3]heptan-2-yl)ethoxy)-2-chlorophenyl)-9-benzyl-6-(1-methylcyclopropoxy)-9H-purine] |
| 2.51 | CC1(Oc2ncnc3c2nc(-c2ccc(OC4CCNCC4)cc2Cl)n3Cc2ccccc2)CC1 [Example D33, 9-benzyl-8-(2-chloro-4-(piperidin-4-yloxy)phenyl)-6-(1-methylcyclopropoxy)-9H-purine] |
| 5.01 | CC1(Oc2ncnc3c2nc(-c2ccc(OCCOCC(=O)O)cc2Cl)n3Cc2cccc(Cl)c2)CC1 [Example 46, 2-(2-(3-Chloro-4-(9-(3-chlorobenzyl)-6-(1-methylcyclopropoxy)-9H-purin-8-yl)phenoxy)ethoxy)acetic acid] |
| 3.98 | CN1CCN(CCOc2ccc(-c3nc4c(OC5(C)CC5)ncnc4n3Cc3ccccc3)c(CO)c2)CC1 [Example H10, (2-(9-benzyl-6-(1-methylcyclopropoxy)-9H-purin-8-yl)-5-(2-(4-methylpiperazin-1-yl)ethoxy)phenyl)methanol] |

| Compound | IC50 [nM] |
| --- | --- |
| CC1(Oc2ncnc3c2nc(-c2ccc(OCCN4CC5CCC(C4)N5)cc2Cl)n3Cc2ccccc2)CC1 [Example R4, 8-(4-(2-(3,8-diazabicyclo[3.2.1]octan-3-yl)ethoxy)-2-chlorophenyl)-9-benzyl-6-(1-methylcyclopropoxy)-9H-purine] | 3.16 |
| Cc1cc(OCCN2CCN(C(=O)OC(C)(C)C)CC2)ccc1-c1nc2c(OC(C)C)ncnc2n1Cc1ccccc1 [Example B3, tert-butyl 4-(2-(4-(9-benzyl-6-isopropoxy-9H-purin-8-yl)-3-methyl-phenoxy)ethyl) piperazine-1-carboxylate] | 5.01 |
| CC1(Oc2ncnc3c2nc(-c2ccc(OCCN4CC5CC(C4)N5)cc2Cl)n3Cc2ccccc2)CC1 [Example R5, 3-(2-(4-(9-benzyl-6-(1-methylcyclopropoxy)-9H-purin-8-yl)-3-chlorophenoxy)ethyl)-3,6-diazabicyclo[3.1.1]heptane] | 3.98 |
